scFv variants of Ab-14 (light chain) against a SARS-CoV-2 spike peptide

Values reported by Li et al. 2023, doi:10.1038/s41467-023-39022-2 (FLAb copy).

All variants were tested on one target, the spike HR2 peptide PDVDLGDISGINAS (SARS-CoV-2).

Parent: Ab-14, a human scFv built as VH, three GGGGS repeats, VL. Only the CDRs of the light chain vary.
VH: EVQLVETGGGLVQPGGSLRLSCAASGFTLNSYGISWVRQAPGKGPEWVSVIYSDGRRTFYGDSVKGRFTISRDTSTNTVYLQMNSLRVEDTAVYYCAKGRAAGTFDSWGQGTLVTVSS
VL: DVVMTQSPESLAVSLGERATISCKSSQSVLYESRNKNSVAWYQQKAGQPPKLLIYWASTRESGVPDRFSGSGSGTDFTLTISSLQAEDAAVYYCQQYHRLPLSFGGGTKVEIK

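The starting antibody came from a phage panning campaign against this peptide. This is the validation round: designs drawn from the data on random variants, tested in the same kind of assay. Their group label is 14L_En_Gibbs (En: ensemble of fine-tuned language models; Gibbs: Gibbs sampling). AlphaSeq pools MATa yeast showing the antibodies with MATalpha yeast showing the peptide. Mating (16 h, 30 °C) was followed by selection of diploids and sequencing of their barcodes. Read counts were normalised to the haploid input and turned into Kd by a linear fit to BCL2-family pairs of known affinity, for each replicate. The assay was run in six technical replicates.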

The parent's light chain CDRs are KSSQSVLYESRNKNSVA, WASTRES, QQYHRLPLS; each variant's own CDRs replace them letter for letter. Scale: log10 of Kd in nM, estimated from mating counts; low values are strong binders. Averages over replicates are reported, and they cover detected replicates only. Where no diploid with the target was found in that replicate, the entry reads "nd": below detection, most likely a poor binder, though not proof of it. Three control strains display no target. For all light chain designs, 4% of the pairings with them gave a signal, with a median of 2.64 and one signal in twenty below 1.59, so weak values seen in few replicates may be background. The control count says in how many pairings with the empty strains this scFv gave a signal. The authors averaged sequences with at least three values out of six and counted those with two or fewer as poor binders. A sequence measured in both rounds can read differently, since the two assays cover different ranges. Of ten entries with the parent sequence, four were seen in most replicates (averages 0.34 to 2.37), three in one and three in none, so single entries are noisy.

MITDVMYNNNEGMQSIA | DKAISVN | QQYFRLPLD: nd, nd, 3.25, 3.66, nd, 2.37 (mean 3.09; controls 0 of 18).
KLLDQADGWTRNERNIA | DADHRGA | QQYSHLPLC: 0.43, 0.04, -0.45, -0.19, -0.13, 0.25 (mean -0.01; controls 0 of 18).
KLMNQMGGIEQMKNSIA | NLELGAR | QQYAHLPLV: 1.96, 2.04, 2.90, 2.47, 3.78, 2.20 (mean 2.56; controls 0 of 18).
RISAHVYDETNTYENVA | NEHIRAN | QQYSRLPLS: 0.25, 0.06, -0.07, 0.14, -0.10, 0.21 (mean 0.08; controls 1 of 18).
KIEQSLFPYGPSWHSIA | NANTLLA | QQYYMLPLM: 1.59, 2.07, 0.82, 1.39, 1.80, 0.92 (mean 1.43; controls 0 of 18).
RLTEHTSMRAYADAAVA | DASTRND | QQYHRLPLE: 0.35, 0.27, 0.32, 0.03, 0.14, 0.42 (mean 0.25; controls 1 of 18).
RIQQQMAGFEREAANIA | STAVRLW | QQYARLPFI: 0.63, 0.55, 0.58, 0.23, 0.12, 0.56 (mean 0.44; controls 0 of 18).
KIRVQQYMQSEMESNIA | GESVRHQ | QQYFHLPLT: 0.25, 1.04, 0.72, 0.32, 0.26, 0.91 (mean 0.58; controls 0 of 18).
QLSLMLNDMDTRMWNVA | EGNQAKE | QDYHRLPLM: nd, 2.92, nd, 2.93, 2.40, nd (mean 2.75; controls 0 of 18).
KIYQLGLGSQKIMNNIA | QTSIREL | QSYNRLPLS: 0.73, 0.37, 0.67, 0.47, 0.61, 1.20 (mean 0.68; controls 1 of 18).
KLTWSQYNWTSNYQAVA | EQNMRAT | QSYYRLPFS: 1.65, 2.24, 1.16, 2.07, 1.55, 1.63 (mean 1.72; controls 2 of 18).
KLKTMPGEIPKEYNSIA | HAELRTP | QQYHRLPLI: 0.93, 0.50, 0.93, 0.44, 0.40, 0.76 (mean 0.66; controls 2 of 18).
KLNDDFQVNERNNGSVA | DAIISEA | QQYARLPLI: 0.92, 0.86, 0.75, 0.73, 0.89, 0.99 (mean 0.86; controls 1 of 18).
MIQDNYAGNTDSGNSIA | AEATWMD | QQYSRLPLA: 1.10, 1.11, nd, 1.67, 2.21, 1.03 (mean 1.42; controls 0 of 18).
QLSLMENEMDDRMWSVA | DANQAKT | QDYHRLPLM: nd, nd, 1.68, nd, nd, nd (controls 1 of 18).
AISPGEMAENQNINAVA | DRGAMIW | QQYARLPLS: nd, nd, 1.29, nd, 0.87, nd (mean 1.08; controls 0 of 18).
KISINQMHYYKMRSNIA | NTSQKAM | QQYFHLPLM: 1.46, 1.05, 0.81, 1.18, 1.11, 1.16 (mean 1.13; controls 3 of 18).
KLTHLTFVLDRQKYSVA | DSERKAE | QQYNRLPLT: 0.54, 0.33, 0.56, 0.59, 0.59, 0.91 (mean 0.59; controls 0 of 18).
KVVKMKSEGDYHAANVA | NANLASD | QQYYRLPLI: 0.69, 1.55, 0.08, 1.33, 0.68, 0.95 (mean 0.88; controls 0 of 18).
HMQNESQQDSRQWNNVA | ETTVVET | QQYATLPLT: nd, 1.54, 0.54, 2.30, 2.26, 2.11 (mean 1.75; controls 2 of 18).
NLGGEDAQDTRGMAAVA | DVSEVGD | QHYSRLPLS: 0.88, 1.17, 1.06, 1.16, 1.50, 1.37 (mean 1.19; controls 3 of 18).
QITNQTAGIMNGIDSIA | EETNLTT | QQYGHLPLS: nd, nd, nd, nd, nd, nd (controls 1 of 18).
KLYERGEGSQKVDRNIA | EMSTRCE | QSYQRLPLS: 0.95, 0.97, 0.83, 0.87, 0.91, 0.91 (mean 0.91; controls 2 of 18).
KFMGSDEYQMQEQHNVA | QTEQKCK | QQYFRLPLT: 0.89, 0.69, 0.60, 0.91, 0.49, 1.57 (mean 0.86; controls 0 of 18).
HMSDSIEKMASHARNIA | DEQTLAM | QQYYRLPLS: nd, nd, nd, nd, nd, nd (controls 0 of 18).
KIDSQYQHGTDQKKAMA | DSSVSTQ | QQYSRLPLS: 0.55, 0.50, 0.36, 0.39, 0.17, 0.46 (mean 0.40; controls 0 of 18).
SLTNETDGNYGRNNSVA | DAEELMT | QDYFRLPIT: nd, 2.62, nd, 1.24, 1.12, 2.75 (mean 1.93; controls 0 of 18).
SMSNAHFNPDNWKNSIA | DAEHVAY | QQYSRLPIT: 0.34, 0.65, -0.16, 0.99, -0.11, 0.38 (mean 0.35; controls 0 of 18).
SLRMMPPVGYAYDENVA | NASQLFS | QQYFMLPLT: nd, 2.76, 2.05, 2.89, 2.96, 1.72 (mean 2.47; controls 0 of 18).
RISFGSYPGSLWHNNIA | GGAQRAE | QQYSRLPLN: 1.23, 0.97, 1.42, 1.23, 1.16, 1.57 (mean 1.27; controls 1 of 18).

The first 3 entries again:

Variant MITDVMYNNNEGMQSIA | DKAISVN | QQYFRLPLD gave nd, nd, 3.25, 3.66, nd, 2.37 (mean 3.09; controls 0 of 18).
Variant KLLDQADGWTRNERNIA | DADHRGA | QQYSHLPLC gave 0.43, 0.04, -0.45, -0.19, -0.13, 0.25 (mean -0.01; controls 0 of 18).
Variant KLMNQMGGIEQMKNSIA | NLELGAR | QQYAHLPLV gave 1.96, 2.04, 2.90, 2.47, 3.78, 2.20 (mean 2.56; controls 0 of 18).